Assay results from US5480892A, “(N-phthalimidoalkyl)piperidines” (The Du Pont Merck Pharmaceutical Company, priority 1994, dated 1996).

Chains of the proteins cited; added tags and fusions are not shown. Residues count along the entry.
UniProt H0VE83, 1-446: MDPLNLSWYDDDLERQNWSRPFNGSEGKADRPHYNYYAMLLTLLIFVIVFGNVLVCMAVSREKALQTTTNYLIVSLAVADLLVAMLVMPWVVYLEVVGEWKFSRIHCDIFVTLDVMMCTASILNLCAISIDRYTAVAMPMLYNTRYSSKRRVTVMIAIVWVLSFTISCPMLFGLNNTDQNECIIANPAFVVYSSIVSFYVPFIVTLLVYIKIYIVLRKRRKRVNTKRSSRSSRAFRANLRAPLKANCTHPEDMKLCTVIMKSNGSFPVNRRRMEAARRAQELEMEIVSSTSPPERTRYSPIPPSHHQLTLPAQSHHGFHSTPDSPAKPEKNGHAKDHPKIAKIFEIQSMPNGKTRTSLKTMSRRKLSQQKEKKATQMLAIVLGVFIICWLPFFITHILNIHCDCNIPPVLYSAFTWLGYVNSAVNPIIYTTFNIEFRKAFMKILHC
UniProt Q60492, whole entry: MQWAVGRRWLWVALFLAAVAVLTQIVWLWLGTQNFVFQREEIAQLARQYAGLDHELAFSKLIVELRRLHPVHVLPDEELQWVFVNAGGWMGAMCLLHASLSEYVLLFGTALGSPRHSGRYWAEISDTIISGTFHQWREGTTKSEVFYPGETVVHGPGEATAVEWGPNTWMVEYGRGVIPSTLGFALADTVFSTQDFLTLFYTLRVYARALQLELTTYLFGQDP

Assays:
[1] = molecular target: Dopamine (D-2) receptor (Cavia porcellus, UniProt H0VE83); experiment: Dopamine Receptor Binding; type: striatum membranes; conditions: read-out: Receptor Binding Affinity Dopamine (D-2) (Ki class); 0.15 nM [3H]spiperone, guinea pig striatum, pH 7.7, 15 min 37° C.; tested form: fumarate
[2] = molecular target: Sigma receptor (Cavia porcellus, UniProt Q60492); experiment: Sigma Receptor Binding Assay; parameters: species or system guinea pig (male Hartley); conditions: read-out: Receptor Binding Affinity Sigma (Ki class); 1 nM (+)-[3H]SKF 10,047, guinea pig brain membranes, pH 7.4, 45 min room temperature; tested form: fumarate

- Ki [1]: 101 to 500 nM
- Ki [2]: 1 to 30 nM
Compound: O=C1C2C3CCC(CC3)C2C(=O)N1CC1CCN(CCc2ccccc2)CC1 (centres unmarked)
